Source: ChEMBL document CHEMBL4190229, “Growth Inhibition of Colon Cancer and Melanoma Cells by Versiol Derivatives from a Paraconiothyrium Species” (J Nat Prod, 2017)

Key:
COLO 205 = assay: Antiproliferative activity against human COLO205 cells after 48 hrs by XTT assay; format: functional, cell-based
KM12 = assay: Antiproliferative activity against human KM12 cells after 48 hrs by XTT assay; format: functional, cell-based

SMILES | Activity (COLO 205) | Activity (KM12)
CC(/C=C/C=C(\C)[C@H](O)[C@H](C)C(=O)O[C@H]1C[C@H](C)C=C2C=C[C@@]3(C)O[C@@H](O)CC(=O)[C@]3(C)[C@H]21)=C\C=C\C(=O)O | Dose-dependent effect | Dose-dependent effect
CC(=O)CC/C=C(\C)[C@H](O)[C@H](C)C(=O)O[C@H]1C[C@H](C)C=C2C=C[C@@]3(C)O[C@@H](O)CC(=O)[C@]3(C)[C@H]21 | Dose-dependent effect | Dose-dependent effect
C/C(=C\C=C\[C@H](C)CC(=O)O)[C@H](O)[C@H](C)C(=O)O[C@H]1C[C@@H](C)[C@@H](O)c2ccc(C)c(C)c21 | Dose-dependent effect | Dose-dependent effect
